Assay results published in patent US11441144B2, “Methods of polynucleotide preparation using multivalent cation salt compositions” (Geron Corporation, priority 2015, dated 2022).

Assay type: physicochemical
Protocol: The crystallization or precipitation of divalent or trivalent forms of Imetelstat was investigated using a large excess of inorganic salts of interest (900 equivalents, weight base). 1M salt solutions CaCl2, MgCl2, BaCl2, CuCl2, ZnCl2, AlCl2, FeCl2, and FeCl3 were prepared. Three types of Imetelstat solution: crude Imetelstat solution (ammonium salt), purified Imetelstat (triethylammonium (TEA) salt form), and Imetelstat sodium (Na salt form), were mixed with each salt solution.
The solubilities of the precipitates isolated under the conditions of large excess of salt regent were initially investigated using the following solvents: water, acetonitrile, MeOH, EtOH, IPA (isopropyl alcohol), 0.1M NaOH, 0.1M HCl, 1M NaCl, and NMP.
For salts precipitated in a large excess of salt reagent, calcium, barium, and magnesium salts of Imetelstat were soluble in a 0.1M NaOH and 1M NaCl solution. (see Table 2). Solubility studies of Imetelstat precipitate obtained from a large excess of magnesium salt reagent were conducted in 1M NaCl solutions at different concentrations (2 mg/mL to 6 mg/mL) and under different pH conditions (pH 8, 9, 10, 11, 12) and analyzed by HPLC (see chromatograms of FIG. 1).

- Solubility in a 0.1M NaOH and 1M NaCl solution: soluble
Substance: CaCl2
